Protein sequences, listed by entry. Tags and fused reporters are not part of them.
UniProt P21397, whole entry, species assumed: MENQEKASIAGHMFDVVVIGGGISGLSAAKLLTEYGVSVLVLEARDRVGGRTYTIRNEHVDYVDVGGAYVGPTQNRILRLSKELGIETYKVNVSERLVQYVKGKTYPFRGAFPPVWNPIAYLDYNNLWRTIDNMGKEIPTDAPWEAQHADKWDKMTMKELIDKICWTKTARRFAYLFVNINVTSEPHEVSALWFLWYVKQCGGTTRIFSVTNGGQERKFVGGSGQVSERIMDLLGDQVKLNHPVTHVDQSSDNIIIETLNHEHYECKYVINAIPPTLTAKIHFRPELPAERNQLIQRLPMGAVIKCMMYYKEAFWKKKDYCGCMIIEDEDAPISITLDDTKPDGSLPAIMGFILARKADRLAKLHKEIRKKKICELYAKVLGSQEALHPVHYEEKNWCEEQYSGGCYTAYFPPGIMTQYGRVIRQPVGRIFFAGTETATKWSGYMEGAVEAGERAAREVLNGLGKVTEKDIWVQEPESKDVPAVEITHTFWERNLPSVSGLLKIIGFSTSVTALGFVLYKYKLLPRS

In patent publication US11179382B2, “Methods of reversing normal aging process and extending lifespan” (MyMD Pharmaceuticals (Florida), Inc., priority 2015, dated 2021):

Target: T1, MAO-A (Homo sapiens, UniProt P21397)
T1 construct: purchased
Test: MAO-Glo luminescent assay, MAO-A inhibition
Format: biochemical
Settings: compared among isomyosmine, myosmine, anatabine, anabasine, nornicotine; clorgyline positive control
Description: This example describes experiments for determining monoamine oxidase (MAO) inhibition for isomyosmine and other alkaloids. MAOs are enzymes located on the outer membrane of mitochondria and are involved in the catabolism of monoamine neurotransmitters. There are two well-characterized isoenzymes: MAO-A, which predominantly catabolizes serotonin and norepinephrine, and MAO-B, which preferentially catabolizes benzylamine and phenylethylamine. Dopamine and tyramine are metabolized by both isoforms.
To detect the activity of MAO, a luminescent method (MAO-Glo Assay kit, from Promega, Cat #V1401) was used. In this method, a MAO substrate (a derivative of beetle luciferin provided in the kit) is mixed with the compound to be tested (in this case, myosmine and control compounds). Then, the MAO enzymes (either A or B, purchased separately) are added to the mixture and incubated with the reaction for 1 hour at room temperature. The MAO enzymes, if not inhibited by the test compound, will convert the substrate into methyl ester luciferin. Finally, a luciferin detection reagent (provided by the kit) is added (20 minutes at room temperature) to stop the MAO reaction and convert methyl ester luciferin into D-luciferin. […] The luminescent signal is measured and recorded using a luminometer. […]

In the case of `C#CCN(C)CCCOc1ccc(Cl)cc1Cl` [clorgyline, reference compound], the “inhibiting the enzymatic activity of MAO-A (result in words, FIG. 3)” value is reported as “greatly shifted leftward”.
